Measured values from US20130303575A1, “ADMINISTRATION OF AN INHIBITOR OF HDAC” (priority 2007, published 2013).
Marks after values point to notes of the source that are not given here.

Assay: Plasma pharmacokinetics of oral SNDX-275 in adults with advanced acute leukemias (Example 3)
Format: in vivo, human

## Nc1ccccc1NC(=O)c1ccc(CNC(=O)OCc2cccnc2)cc1 [SNDX-275, N-(2-aminophenyl) 4-[N-(pyrid-3-yl)methyloxycarbonylaminomethyl]benzamide]
4 mg/m^2, first dose, with food, 7 patients
  CL/F (mean and SD): 40.9 ± 17.2^ L/h
6 mg/m^2, first dose, with food, n = 5
  CL/F (mean and SD): 34.4 ± 11.5^a L/h
8 mg/m^2, first dose, with food, n = 10
  CL/F (mean and SD): 66.7 ± 54.5^b L/h
10 mg/m^2, first dose, with food, n = 5
  CL/F (mean and SD): 68.2 ± 25.4^c L/h
All doses, n = 27
  CL/F (mean and SD): 54.0 ± 37.2^d L/h
